AlphaSeq binding of Ab-91 heavy chain variants to a spike HR2 peptide

The measurements come from Engelhart et al. 2022 (doi:10.1038/s41597-022-01779-4) through the FLAb antibody collection.

Target peptide (SARS-CoV-2 spike, HR2 region): PDVDLGDISGINAS

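The parent was found by panning a naive human phage display library on the peptide. Variants in AAYL51 differ from the parent at up to three CDR positions; double and triple changes were sampled at random. The scFvs were displayed on barcoded MATa yeast, the peptide on MATalpha yeast. Mating (16 h, 30 °C) was followed by selection of diploids and sequencing of their barcodes. A regression on co-assayed BCL2-family reference pairs converts the normalised counts of each replicate to an apparent Kd. Each pool was mated in three replicate cultures.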

The variants keep the light chain, the linker and the frameworks of Ab-91 (scFv order VL, a (GGGGS)3 linker, VH).
VL: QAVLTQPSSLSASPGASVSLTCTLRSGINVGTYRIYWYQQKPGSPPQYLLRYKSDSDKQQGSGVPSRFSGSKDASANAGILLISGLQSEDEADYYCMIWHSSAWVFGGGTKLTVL
VH: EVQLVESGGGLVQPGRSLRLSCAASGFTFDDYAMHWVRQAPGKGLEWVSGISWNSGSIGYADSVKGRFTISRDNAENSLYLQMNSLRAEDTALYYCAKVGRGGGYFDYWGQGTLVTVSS

Each variant is given by its three heavy chain CDRs, as the data file delimits them; those of the parent are GFTFDDYAMH, GISWNSGSIGYADSVK, VGRGGGYFDY.
All variants listed here change I58 of the VH, counted from its first residue.
Numbers give log10(Kd / nM), so 0 is 1 nM and 3 is 1 µM. Smaller is tighter.
Replicates are averaged; those with no signal do not enter the mean.
Where no diploid with the target was found in that replicate, the entry reads "nd": below detection, most likely a poor binder, though not proof of it.
The list is sorted by this average, lowest first, undetected variants last.
For reference, the parent read 1.86 as the reference entry and 0.88 as a member of this library.
Background: pairings of library AAYL51 with three empty control strains gave a value in 21% of cases (median 4.54, 5th percentile 3.26). Values in that range, when seen in few replicates, are hard to tell from nonspecific mating. The control count says in how many pairings with the empty strains this scFv gave a signal.

With GFTFDDYAMH | GISWNSGSDGYADSVK | VIEGGGYFDY the result was 0.64, 0.72, -0.12 (mean 0.41; controls 2 of 9). The variant GFTFGDYAMH | GISWNSGSCGYADSVK | VGRGGGYFDY showed 1.54, 1.07, 1.29 (mean 1.30; controls 0 of 9). For GFTFDDYAMH | GISWNSEFQGYADSVK | VGRGGGYFDY, the assay gave 1.42, 1.87, 0.87 (mean 1.39; controls 0 of 9). With GFTFDDYAMH | GISWNSGSKGYADAVK | VGEGGGYFDY the result was 1.88, 1.79, 1.41 (mean 1.69; controls 2 of 9). With GFTFDDYAMH | GISWNSCSFGYADSVK | VGRGGGYFDF the result was 1.87, 2.44, 2.08 (mean 2.13; controls 0 of 9). For GFTFDDYAMH | GISWNSGSAGYADSVT | VGDGGGYFDY, the assay gave 2.47, 2.15, 2.35 (mean 2.32; controls 1 of 9). For GFTFDDYAWH | GISWNSGSGGYADSVK | VGVGGGYFDY, the assay gave 2.57, 2.31, 2.23 (mean 2.37; controls 7 of 9). The variant GFTFDDYAMH | GISINSGSTGYADSVK | VGRMGGYFDY gave 2.95, 2.72, 2.60 (mean 2.76; controls 0 of 9). For GFTFDDYAMH | GISWNHGSEGYADSVK | VGRGGGYFDY, the assay gave 2.88, nd, nd (controls 1 of 9).

The variant GFTFDDYAMH | GISWNSGSPGYADSVK | AGRGGGYFDY showed 2.54, 3.79, nd (mean 3.17; controls 0 of 9). For GFTFDDYAMH | GISWNSGSYGYAGSVK | VGRGGGYFDY, the assay gave 3.39, nd, nd (controls 0 of 9). With GFTFDDYAMH | GISWNSWSYGYANSVK | VGRGGGYFDY the result was 3.69, 3.10, nd (mean 3.39; controls 0 of 9). For GFTFDDYAMH | GISWNSGSMGYAISVK | VGVGGGYFDY, the assay gave nd, 4.16, 2.87 (mean 3.52; controls 0 of 9). For GFTFDDYAMH | GISWNSGSDGYADSVK | VGRGGQYFDR, the assay gave nd, 4.01, nd (controls 0 of 9). For GFTIDDYAMH | GIYWNSGSSGYADSVK | VGRGGGYFDY, the assay gave 4.04, nd, nd (controls 0 of 9). For GFTFDDYAMH | GISWNSGSFSYADSVK | VGRGGGYFDY, the assay gave 4.49, nd, nd (controls 0 of 9). For DFTFDDYAMH | GISWNSGSDGYADSVK | VMRGGGYFDY, the assay gave 4.55, nd, nd (controls 2 of 9). With GFTFDDYAMH | GISWGSGSVGYADSVK | VPRGGGYFDY the result was 5.20, 4.72, 4.17 (mean 4.70; controls 3 of 9).

For GFTFDDQAMH | GISWNSGSQGYADSVK | VGRGGGYFFY, the assay gave 4.76, 4.89, 4.54 (mean 4.73; controls 2 of 9). The variant GFTFDDYAMH | GIQWNSGSGGYADSVK | VGRGGFYFDY showed 4.14, 5.53, nd (mean 4.83; controls 4 of 9). The variant GMTFDDYAMH | GISWNSGSPGYADSVK | VGHGGGYFDY gave nd, 5.48, 4.45 (mean 4.97; controls 2 of 9). With GFTFDDYAMH | GISWNSGSPGYAVYVK | VGRGGGYFDY the result was 5.34, 4.66, nd (mean 5.00; controls 2 of 9). With GFTFDDYADH | GISWNSGSRGYADSVK | VGRGGGYFDY the result was nd, 5.02, nd (controls 2 of 9). The variant GFTFDDYAMH | GHSWNSGSKGYADSVK | VGRGGQYFDY showed 5.04, nd, nd (controls 2 of 9). For LFTFDDYKMH | GISWNSGSAGYADSVK | VGRGGGYFDY, the assay gave 5.26, nd, 4.84 (mean 5.05; controls 3 of 9). The variant GFTFDDYAMH | GISWNSGSPGYADSVK | VGRGGVYFPY gave 4.76, nd, 5.46 (mean 5.11; controls 5 of 9). With GFTFDDYAMH | GISWNSGSQGYADSVK | VGRGGGGFDF the result was 5.56, 5.55, 4.40 (mean 5.17; controls 2 of 9).

With GFTFDDYAMH | GISWNSGSKHPADSVK | VGRGGGYFDY the result was 4.61, 5.80, nd (mean 5.21; controls 3 of 9). With GFTFDDYVMH | GPSWNSGSGGYADSVK | VGRGGGYFDY the result was 4.63, 5.84, nd (mean 5.24; controls 0 of 9). With GFTDDDYAMH | GISWNSGSQGYADSVK | VGRGGGYADY the result was 5.80, nd, 5.52 (mean 5.66; controls 6 of 9). For GFTFDDYAMH | GISWNSGSLGYADSVK | VGRVGGYFQY, the assay gave 5.85, nd, nd (controls 2 of 9). For GFTFDDYAMH | GISWNSGSNGYAQSEK | VGRGGGYFDY, the assay gave nd, nd, nd (controls 0 of 9). The variant GFTFDDYAMH | GISWNSGFFGYADSVK | VGRGGGTFDY gave nd, nd, nd (controls 2 of 9). With GFTFDDYAMH | GISQNSGSHGYADSRK | VGRGGGYFDY the result was nd, nd, nd (controls 3 of 9). With GFTFDDYAMH | GISWNSGSSGYADCVK | VGRGGGYFYY the result was nd, nd, nd (controls 1 of 9). The variant GFTFDDYAGH | GISWNSGSGGYADSVT | VGRGGGYFDY showed nd, nd, nd (controls 0 of 9).

For GFTFDDYAMH | GQSWNSGSCGYADSVK | VGRGGGYDDY, the assay gave nd, nd, nd (controls 0 of 9). The variant GFTNDDYEMH | GISWNSGSQGYADSVK | VGRGGGYFDY gave nd, nd, nd (controls 1 of 9). The variant GFTFDDYAMH | WISWNRGSHGYADSVK | VGRGGGYFDY showed nd, nd, nd (controls 1 of 9). For GFTFDDYAMK | GIRWNSGSHGYADSVK | VGRGGGYFDY, the assay gave nd, nd, nd (controls 1 of 9). The variant GFTFDDYAMH | IISWNSGSNNYADSVK | VGRGGGYFDY gave nd, nd, nd (controls 2 of 9). The variant GFTFDDYAMH | GISWNSGSRGYADSVA | VGRGGGFFDY gave nd, nd, nd (controls 0 of 9). The variant GFTFDPVAMH | GISWNSGSWGYADSVK | VGRGGGYFDY gave nd, nd, nd (controls 6 of 9).

The last 5 entries again:

CDR-H1	CDR-H2	CDR-H3	replicates, log10 nM	mean log10 Kd (nM)	control signals
GFTFDDYAMH	WISWNRGSHGYADSVK	VGRGGGYFDY	nd, nd, nd	nd	1 of 9
GFTFDDYAMK	GIRWNSGSHGYADSVK	VGRGGGYFDY	nd, nd, nd	nd	1 of 9
GFTFDDYAMH	IISWNSGSNNYADSVK	VGRGGGYFDY	nd, nd, nd	nd	2 of 9
GFTFDDYAMH	GISWNSGSRGYADSVA	VGRGGGFFDY	nd, nd, nd	nd	0 of 9
GFTFDPVAMH	GISWNSGSWGYADSVK	VGRGGGYFDY	nd, nd, nd	nd	6 of 9